Read-outs that look alike come from different tables or passages of the source.
Key:
[1] = tested on: klotho^hm mice
[2] = tested on: klotho^hm mice; conditions: mouse, in vivo

SMILES: CC(=O)Nc1nnc(S(N)(=O)=O)s1 [acetazolamide]
- survival at 90 days ([1]; klotho^hm mice, acetazolamide, control group (n=10) died after 90 days): all of the animals treated with acetazolamide were still alive
- lifespan ([1]; klotho^hm mice, treatment in drinking water, versus untreated): drastic extension of the lifespans
- average life expectancy ([1]; klotho^hm mice, treatment in drinking water, untreated controls 66 or 78 days depending on experiment): 220 days

SMILES: Cl.N [ammonium chloride, Ammonium chloride]
- average life expectancy ([1]; mouse, in vivo): 112 days
- survival at 110 days ([1]; mouse, in vivo): all of the mice treated with NH4Cl survived this long

SMILES: CCN(CC)CCCC(C)Nc1ccnc2cc(Cl)ccc12 (racemic) [chloroquine, (RS)—N′-(7-chloroquinoline-4-yl)-N,N-diethyl-pentane-1,4-diamine]
- calcification in analyzed tissues (trachea, lungs, kidneys, stomach, vessels) [2]: significant reduction of the calcification
- average life expectancy ([1]; mouse, in vivo): 90 days
- lifespan ([1]; mouse, in vivo): drastic extension of the lifespans

SMILES: N.N.O=S(=O)(O)O [ammonium sulfate, Ammonium sulfate]
- calcification in analyzed tissues (trachea, lungs, kidneys, stomach, vessels) [2]: strongly reduce
- average life expectancy ([1]; mouse, in vivo): 129 days
- lifespan ([1]; mouse, in vivo): drastic extension of the lifespans
